Experiment [1] concerns the target T1, KRas Q61H (Homo sapiens, UniProt P01116, Q61H).
T1 construct: Biotinylated KRas (corresponding to amino acids 1-169, produced at Accelegan Inc.); biotin (biotinylated); purchased Accelegan Inc
Kind of experiment: KRas binding assay (TR-FRET displacement). To be noted: TR-FRET tracer displacement, 60-minute incubation at room temperature. In general terms: In TR-FRET formats the signal depends on donor and acceptor labels being close together.

Sequences of proteins named here, by UniProt entry; tags and fusion partners are left off. A change or cut given only in a name is not applied to a line headed by its entry.
UniProt P01116: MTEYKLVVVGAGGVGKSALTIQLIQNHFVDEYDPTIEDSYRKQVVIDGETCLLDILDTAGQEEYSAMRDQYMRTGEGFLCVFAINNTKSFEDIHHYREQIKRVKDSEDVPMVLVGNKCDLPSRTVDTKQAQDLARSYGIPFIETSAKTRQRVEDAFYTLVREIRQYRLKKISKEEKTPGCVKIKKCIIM

The target of experiment [2] is T2, KRas G13D (Homo sapiens, UniProt P01116, G13D).
T2 construct: Biotinylated KRas (corresponding to amino acids 1-169, produced at Accelegan Inc.); biotin (biotinylated); purchased Accelegan Inc
Kind of experiment: KRas binding assay (TR-FRET displacement). To be noted: TR-FRET tracer displacement, 60-minute incubation at room temperature.

For orientation: IC50 means the concentration needed to halve the response being measured.

Turning to `CCc1cccc2cccc(-c3ncc4c(N5CCCC6(C5)NC(=O)NC6=O)nc(OCC56CCCN5CCC6)nc4c3F)c12` (stereo not shown) [Example 293, 7-(7-(8-ethylnaphthalen-1-yl)-8-fluoro-2-((hexahydro-1H-pyrrolizin-7a-yl)methoxy)pyrido[4,3-d]pyrimidin-4-yl)-1,3,7-triazaspiro[4.5]decane-2,4-dione], the IC50 in experiment [1] came to 0.005 µM; in experiment [2], 0.007 µM.
For `CCc1cccc2cccc(-c3ncc4c(N5CCCC(c6nc[nH]n6)C5)nc(OCC56CCCN5CCC6)nc4c3F)c12` (stereo not shown) [Example 295, 4-(3-(1H-1,2,4-triazol-3-yl)piperidin-1-yl)-7-(8-ethylnaphthalen-1-yl)-8-fluoro-2-((hexahydro-1H-pyrrolizin-7a-yl)methoxy)pyrido[4,3-d]pyrimidine] the same measures were 3.26 µM and 2.87 µM.
The matching figures for `Cc1cc(-c2ncc3c(N4CCCC(C)(O)C4)nc(OCC45CCCN4CCC5)nc3c2F)c2cn[nH]c2c1` (stereo not shown) [Example 431, 1-(8-fluoro-7-(6-methyl-1H-indazol-4-yl)-2-((tetrahydro-1H-pyrrolizin-7a(5H)-yl)methoxy)pyrido[4,3-d]pyrimidin-4-yl)-3-methylpiperidin-3-ol]: 22.2 µM and 13.3 µM.
For `CCc1cccc2cc3[nH]ncc3c(-c3ncc4c(N5CCC[C@@](C)(O)C5)nc(OC[C@@]56CCCN5C[C@H](F)C6)nc4c3F)c12` [Example 473, (3R)-1-(7-(5-ethyl-1H-benzo[f]indazol-4-yl)-8-fluoro-2-(((2R,7aS)-2-fluorohexahydro-1H-pyrrolizin-7a-yl)methoxy)pyrido[4,3-d]pyrimidin-4-yl)-3-methylpiperidin-3-ol] the same measures were 0.011 µM and 0.011 µM.
`CCc1cccc2cccc(-c3ncc4c(N5CCOCC(CO)C5)nc(OCC56CCCN5CCC6)nc4c3F)c12` (stereo not shown) [Example 289, (4-(7-(8-ethylnaphthalen-1-yl)-8-fluoro-2-((hexahydro-1H-pyrrolizin-7a-yl)methoxy)pyrido[4,3-d]pyrimidin-4-yl)-1,4-oxazepan-6-yl)methanol]: the IC50 in experiment [1] amounted to 1.07 µM; in experiment [2], 0.96 µM.
Turning to `CCc1c(F)ccc2cc(O)cc(-c3ncc4c(N5CCC[C@@](C)(O)C5)nc(OC[C@@]56CCCN5[C@H](COC(=O)N(C)C)CC6)nc4c3F)c12` [Example 314, ((3S,7aS)-7a-(((7-(8-ethyl-7-fluoro-3-hydroxynaphthalen-1-yl)-8-fluoro-4-((R)-3-hydroxy-3-methylpiperidin-1-yl)pyrido[4,3-d]pyrimidin-2-yl)oxy)methyl)hexahydro-1H-pyrrolizin-3-yl)methyl dimethylcarbamate], the IC50 in experiment [1] and in experiment [2] was not above 0.002 µM throughout.
`O=C1CC2(CCCN(c3nc(OCC45CCCN4CCC5)nc4c(F)c(-c5cccc6cccc(Cl)c56)ncc34)C2)N1` (stereo not shown) [Example 283, 6-(7-(8-chloronaphthalen-1-yl)-8-fluoro-2-((tetrahydro-1H-pyrrolizin-7a(5H)-yl)methoxy)pyrido[4,3-d]pyrimidin-4-yl)-1,6-diazaspiro[3.5]nonan-2-one]: the values for the IC50 in experiment [1] and in experiment [2] were 0.142 µM and 0.157 µM, respectively.
`O=C1NC(=O)C2(CCCN(c3nc(OCC45CCCN4CCC5)nc4c(F)c(-c5cccc6cccc(CF)c56)ncc34)C2)N1` (stereo not shown) [Example 462, 7-(8-fluoro-7-(8-(fluoromethyl)naphthalen-1-yl)-2-((hexahydro-1H-pyrrolizin-7a-yl)methoxy)pyrido[4,3-d]pyrimidin-4-yl)-1,3,7-triazaspiro[4.5]decane-2,4-dione]: the IC50 in experiment [1] stood at 0.567 µM; in experiment [2], 0.393 µM.
In the case of `O=C1NC(=O)C2(CCCCN(c3nc(OCC45CCCN4CCC5)nc4c(F)c(-c5cccc6cccc(F)c56)ncc34)C2)N1` (stereo not shown) [Example 267, 7-(8-fluoro-7-(8-fluoronaphthalen-1-yl)-2-((hexahydro-1H-pyrrolizin-7a-yl)methoxy)pyrido[4,3-d]pyrimidin-4-yl)-1,3,7-triazaspiro[4.6]undecane-2,4-dione], the IC50 in experiment [1] was found to be 2.43 µM; in experiment [2] it was 1.37 µM.
For `CCc1cccc2cccc(-c3ncc4c(N5CCCC6(CC(=O)N6)C5)nc(OCC56CCCN5CCC6)nc4c3F)c12` (stereo not shown) [Example 288, 6-(7-(8-ethylnaphthalen-1-yl)-8-fluoro-2-((hexahydro-1H-pyrrolizin-7a-yl)methoxy)pyrido[4,3-d]pyrimidin-4-yl)-1,6-diazaspiro[3.5]nonan-2-one] the same measures were 0.113 µM and 0.071 µM.
For `CCc1cccc2cccc(-c3ncc4c(NCc5cn[nH]c5)nc(OCC56CCCN5CCC6)nc4c3F)c12` [Example 287, N-((1H-pyrazol-4-yl)methyl)-7-(8-ethylnaphthalen-1-yl)-8-fluoro-2-((hexahydro-1H-pyrrolizin-7a-yl)methoxy)pyrido[4,3-d]pyrimidin-4-amine] the same measures were 1.16 µM and 0.423 µM.
The matching figures for `Cc1ccc(O)cc1-c1ncc2c(N3CCCC(C)(O)C3)nc(OCC34CCCN3CCC4)nc2c1F` (stereo not shown) [Example 432, 1-(8-fluoro-2-((hexahydro-1H-pyrrolizin-7a-yl)methoxy)-7-(5-hydroxy-2-methylphenyl)pyrido[4,3-d]pyrimidin-4-yl)-3-methylpiperidin-3-ol]: 2.81 µM and 1.67 µM.
In the case of `NC(=O)C(O)CNc1nc(OCC23CCCN2CCC3)nc2c(F)c(-c3cccc4cccc(Cl)c34)ncc12` (stereo not shown) [Example 475, 3-((7-(8-chloronaphthalen-1-yl)-8-fluoro-2-((tetrahydro-1H-pyrrolizin-7a(5H)-yl)methoxy)pyrido[4,3-d]pyrimidin-4-yl)amino)-2-hydroxypropanamide], the IC50 came out at 8.14 µM in experiment [1] and 7.52 µM in experiment [2].
The matching figures for `NS(=O)(=O)CC1CCCN(c2nc(OCC34CCCN3CCC4)nc3c(F)c(-c4cccc5cccc(CO)c45)ncc23)C1` (stereo not shown) [Example 439, 1-(1-(8-fluoro-2-((hexahydro-1H-pyrrolizin-7a-yl)methoxy)-7-(8-(hydroxymethyl)naphthalen-1-yl)pyrido[4,3-d]pyrimidin-4-yl)piperidin-3-yl)methanesulfonamide]: 1.91 µM and 2.44 µM.
For `CCc1c(F)ccc2cc(O)cc(-c3ncc4c(N5CCOC[C@@](C)(O)C5)nc(OCC5(CN6CCCC6)CC5)nc4c3F)c12` [Example 321, (S)-4-(7-(8-ethyl-7-fluoro-3-hydroxynaphthalen-1-yl)-8-fluoro-2-((1-(pyrrolidin-1-ylmethyl)cyclopropyl)methoxy)pyrido[4,3-d]pyrimidin-4-yl)-6-methyl-1,4-oxazepan-6-ol] the same measures were not above 0.002 µM and not above 0.002 µM.
The matching figures for `Cc1cc(N)nc(-c2ncc3c(N4CCC[C@@](C)(O)C4)nc(OC[C@@H]4CCCN4C)nc3c2F)c1C(F)(F)F` [Example 435, (R)-1-(7-(6-amino-4-methyl-3-(trifluoromethyl)pyridin-2-yl)-8-fluoro-2-(((S)-1-methylpyrrolidin-2-yl)methoxy)pyrido[4,3-d]pyrimidin-4-yl)-3-methylpiperidin-3-ol]: 6.1 µM and 2.06 µM.
For `Cc1cc(N)nc(-c2ncc3c(N4CCCC(C)(O)C4)nc(OC[C@@]45CCCN4C[C@H](F)C5)nc3c2F)c1C(F)(F)F` (stereo partly drawn) [Example 459, 1-(7-(6-amino-4-methyl-3-(trifluoromethyl)pyridin-2-yl)-8-fluoro-2-(((2R,7aS)-2-fluorohexahydro-1H-pyrrolizin-7a-yl)methoxy)pyrido[4,3-d]pyrimidin-4-yl)-3-methylpiperidin-3-ol], the IC50 came out at 0.793 µM in experiment [1] and 0.586 µM in experiment [2].
Turning to `NS(=O)(=O)CC1CCCN(c2nc(OCC34CCCN3CCC4)nc3c(F)c(-c4cccc5ccccc45)ncc23)C1` (stereo not shown) [Example 436], the IC50 in experiment [1] stood at 0.173 µM; in experiment [2] it was 0.212 µM.
For `O=C1CC2(CCCN(c3nc(OCC45CCCN4CCC5)nc4c(F)c(-c5cccc6cccc(C(F)F)c56)ncc34)C2)N1` (stereo not shown) [Example 466, 6-(7-(8-(difluoromethyl)naphthalen-1-yl)-8-fluoro-2-((hexahydro-1H-pyrrolizin-7a-yl)methoxy)pyrido[4,3-d]pyrimidin-4-yl)-1,6-diazaspiro[3.5]nonan-2-one] the same measures were 3.51 µM and 3.58 µM.
As for `CCc1cccc2cccc(-c3ncc4c(N5CCOCC(C)(O)C5)nc(OCC56CCCN5CCC6)nc4c3F)c12` (stereo not shown) [Example 291, 4-(7-(8-ethylnaphthalen-1-yl)-8-fluoro-2-((hexahydro-1H-pyrrolizin-7a-yl)methoxy)pyrido[4,3-d]pyrimidin-4-yl)-6-methyl-1,4-oxazepan-6-ol], the IC50 was 0.218 µM in experiment [1] and 0.209 µM in experiment [2].
The matching figures for `Cc1cc2[nH]ncc2c(-c2ncc3c(N4CCCC(C)(O)C4)nc(OC[C@@]45CCCN4C[C@H](F)C5)nc3c2F)c1C` (stereo partly shown) [Example 471]: 0.451 µM and 0.319 µM.
The matching figures for `O=C1NC(=O)C2(COCCN(c3nc(OCC45CCCN4CCC5)nc4c(F)c(-c5cccc6cccc(F)c56)ncc34)C2)N1` (stereo not shown) [Example 272, 10-(8-fluoro-7-(8-fluoronaphthalen-1-yl)-2-((hexahydro-1H-pyrrolizin-7a-yl)methoxy)pyrido[4,3-d]pyrimidin-4-yl)-7-oxa-1,3,10-triazaspiro[4.6]undecane-2,4-dione]: 0.144 µM and 0.134 µM.
For `CCc1c(F)ccc2cc(O)cc(-c3ncc4c(N5CCC[C@]6(CC(=O)N6)C5)nc(OCC5(CN6CCCC6)CC5)nc4c3F)c12` [Example 319, (S)-6-(7-(8-ethyl-7-fluoro-3-hydroxynaphthalen-1-yl)-8-fluoro-2-((1-(pyrrolidin-1-ylmethyl)cyclopropyl)methoxy)pyrido[4,3-d]pyrimidin-4-yl)-1,6-diazaspiro[3.5]nonan-2-one] the same measures were not above 0.002 µM and not above 0.002 µM.

These data come from US12398154B2, “Azaquinazoline pan-KRas inhibitors” (Mirati Therapeutics, Inc., priority 2020, dated 2025).
